## Measured affinities in a library of Ab-14 heavy chain variants

The measurements come from Engelhart et al. 2022 (doi:10.1038/s41597-022-01779-4) through the FLAb antibody collection.

Target peptide (SARS-CoV-2 spike, HR2 region): PDVDLGDISGINAS

Parent scFv Ab-14: VH joined to VL by a 15-residue (Gly4Ser)3 linker. Changes lie in the heavy chain CDRs alone.
VH: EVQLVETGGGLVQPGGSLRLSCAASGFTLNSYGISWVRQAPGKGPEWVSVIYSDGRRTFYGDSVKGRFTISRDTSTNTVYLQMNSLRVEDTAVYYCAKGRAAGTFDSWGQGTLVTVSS
VL: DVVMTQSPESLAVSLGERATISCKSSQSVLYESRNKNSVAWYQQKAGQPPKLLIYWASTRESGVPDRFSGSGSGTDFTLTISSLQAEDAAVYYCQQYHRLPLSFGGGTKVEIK

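AAYL49 was designed without a model: most single CDR substitutions and a random sample of double and triple ones. Affinity was read by AlphaSeq, a pooled yeast mating assay with surface-displayed partners. Binding brings cells together so that they mate, and sequencing counts the barcode pairs among the diploids. Scores were corrected for input abundance and mapped to Kd with protein pairs of known affinity run in the same pool. Each pool was mated in three replicate cultures.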

The parent's heavy chain CDRs are GFTLNSYGIS, VIYSDGRRTFYGDSVK, GRAAGTFDS; each variant's own CDRs replace them letter for letter. Scale: log10 of Kd in nM, estimated from mating counts; low values are strong binders. Averages over replicates are reported, and they cover detected replicates only. An entry "n.d." has no value in the source: the pair was not observed among the diploids in that replicate. This suggests poor binding but is not conclusive.

| CDR-H1 | CDR-H2 | CDR-H3 | replicates, log10 nM | mean, log10 nM | empty controls |
|---|---|---|---|---|---|
| GFTLNSVGIS | DGYSDGRRTFYGDSVK | GRAAGTFDS | n.d. / n.d. / 2.99 | 2.99 | 3/9 (3.96) |
| GFTLNSYGIR | VIKSDGRRMFYGDSVK | GRAAGTFDS | n.d. / n.d. / n.d. | n.d. | 2/9 (2.78) |
| GFTLNSYGIS | VIYSDHRRTFYGDSVK | GRAAGHFDA | n.d. / n.d. / n.d. | n.d. | 2/9 (3.26) |
| GFTANSYGIS | VIYSDGRRHFYGDSVK | GRANGTFDS | 4.72 / n.d. / n.d. | 4.72 | 2/9 (3.89) |
| GLTLNSYGIS | VIYSDGRRTEYGDSVK | GRAAGTYDS | n.d. / n.d. / n.d. | n.d. | 0/9 |
| CFTLNSYGIT | VIDSDGRRTFYGDSVK | GRAAGTFDS | n.d. / 4.21 / n.d. | 4.21 | 6/9 (4.45) |
| GFTLKSYGIS | VIYSDGRRTFYGDIVK | GNAAGTFDS | 2.24 / 2.06 / 2.39 | 2.23 | 0/9 |
| GFTLNSYGIS | VIYSDGRGTMYGDSFK | GRAAGTFDS | n.d. / 4.14 / n.d. | 4.14 | 2/9 (4.90) |
| GFTLNSYGIS | VIYSDGRYTFSGDSVK | GRAAGTFES | n.d. / n.d. / 5.77 | 5.77 | 2/9 (4.52) |
| GFTLNSYGLS | VIYSDGRRTHNGDSVK | GRAAGTFDS | n.d. / n.d. / n.d. | n.d. | 0/9 |
| QFTLNSYGIS | VIYSDGRRTFYGDSVK | GCAAGLFDS | n.d. / n.d. / n.d. | n.d. | 0/9 |
| GFYLNSYGIS | VIYSDGRRTFYGDSVL | GRIAGTFDS | 1.78 / 1.60 / 1.88 | 1.75 | 0/9 |
| NFTLNCYGIS | VIYSDGRRTFEGDSVK | GRAAGTFDS | 4.07 / n.d. / n.d. | 4.07 | 0/9 |
| HFGLNSYGIS | VIYSDGRMTFYGDSVK | GRAAGTFDS | n.d. / n.d. / n.d. | n.d. | 1/9 (3.74) |
| GHTLNSYGIS | FIYSDGRRTFYYDSVK | GRAAGTFDS | n.d. / n.d. / n.d. | n.d. | 0/9 |
| GETLNSYQIS | VIYSDGRRTFYGDSVK | GRAIGTFDS | n.d. / n.d. / n.d. | n.d. | 1/9 (3.87) |
| GFYLNSYGIS | VIYGDGRRTFYGDSVW | GRAAGTFDS | n.d. / n.d. / 4.27 | 4.27 | 3/9 (5.03) |
| GFTLNSYGIS | VIYSDGRRTFYGDSGK | GKAAGTFDS | 2.57 / 1.97 / 2.67 | 2.40 | 3/9 (4.01) |
| GFTLNSAGIS | VIYSDGRRTFGGDAVK | GRAAGTFDS | 5.70 / 4.69 / 5.10 | 5.16 | 7/9 (4.88) |
| GFTLNSYDIS | AIYSDGRRTFYGDLVK | GRAAGTFDS | n.d. / n.d. / 4.26 | 4.26 | 3/9 (4.56) |
| GFTLNSYGIR | VTYSDGRDTFYGDSVK | GRAAGTFDS | n.d. / n.d. / n.d. | n.d. | 2/9 (4.37) |
| GFTLNSYGIS | VIYSDGRRTNYGQSVK | GRAAGTFCS | n.d. / n.d. / n.d. | n.d. | 0/9 |
| GWTLNSYGIS | VIYSDGRRTFYGPSVK | GRAAGTFDS | 2.54 / 2.38 / 3.33 | 2.75 | 2/9 (3.62) |
| GFTLNSYGIS | HIYSDGRRTFYGDHVK | GRAAGTFDS | n.d. / n.d. / n.d. | n.d. | 1/9 (4.10) |
| GFTLNSYGES | VICQDGRRTFYGDSVK | GRAAGTFDS | n.d. / 2.82 / 3.13 | 2.98 | 0/9 |
| GKTLNSYGIS | VIYSDGRRTFYGDSVK | GRAAGTADS | n.d. / n.d. / n.d. | n.d. | 2/9 (3.83) |
| TFTLASYGIK | VIYSDGRRTFYGDSVK | GRAAGTFDS | n.d. / n.d. / n.d. | n.d. | 1/9 (2.44) |
| GFQLNSYGIS | VIYSDGRRTFYGMSVK | GRQAGTFDS | 2.29 / 2.32 / 2.91 | 2.51 | 1/9 (3.05) |
| GFTLNSYGIS | PWYSDGRRTFYGDSVK | GRNAGTFDS | n.d. / 3.87 / n.d. | 3.87 | 1/9 (4.83) |
| GFTLNSYGIS | VIYSFGRRTFYIDSVK | GRAAGEFDS | 3.90 / n.d. / n.d. | 3.90 | 1/9 (3.89) |
| GFTLNSYDLS | VIYSDGRRTFYGDSVK | GRAALTFDS | 6.24 / n.d. / n.d. | 6.24 | 2/9 (5.21) |
| GFYLNSYYIS | VIYSDGRPTFYGDSVK | GRAAGTFDS | n.d. / 4.16 / n.d. | 4.16 | 0/9 |
| GFTLNSFGIS | VQYSDGRRTFYGDSCK | GRAAGTFDS | 2.61 / n.d. / n.d. | 2.61 | 0/9 |
| GYTLNSYGIS | VIYSDGRPTFYGDSEK | GRAAGTFDS | n.d. / n.d. / n.d. | n.d. | 0/9 |
| GFTLNSNGIS | VIYSDGRWTFYFDSVK | GRAAGTFDS | 3.98 / n.d. / 3.83 | 3.91 | 2/9 (5.28) |
| GFTNNSYGIS | VIYSAGRRTFYGDSVK | GRAAFTFDS | n.d. / n.d. / 5.11 | 5.11 | 0/9 |
| GFTLNSYGIS | VIYSDGIRTFYGDSVK | GRRAGTFDS | 0.54 / 0.72 / 0.70 | 0.65 | 0/9 |
| GFTLNSYGIS | VIYSDGRRTFNGSSVD | GRAAGTFDS | n.d. / n.d. / n.d. | n.d. | 1/9 (4.16) |
| GFTLNEYGIS | VIYSDGRCTFYQDSVK | GRAAGTFDS | n.d. / n.d. / n.d. | n.d. | 0/9 |
| GFTQNSYGIS | VQYSDGRRTFYGDSFK | GRAAGTFDS | 3.94 / n.d. / n.d. | 3.94 | 6/9 (3.96) |
| GFTLSSGGIS | VIYSDGRRTFYGDSVN | GRAAGTFDS | n.d. / n.d. / 5.46 | 5.46 | 2/9 (3.58) |
| EFTLNSYGIS | VIYSDERRTFYGDSVK | GRAAGTFDS | 3.68 / n.d. / n.d. | 3.68 | 5/9 (4.24) |
| GFTLNSDGIS | VIYSDGRRTAYGDSVK | GRAAGLFDS | n.d. / n.d. / n.d. | n.d. | 3/9 (3.84) |
| GFTLNSYGFS | VIYSDGRRTFYGDSVK | GRQAGTFDS | n.d. / n.d. / n.d. | n.d. | 2/9 (3.44) |
| GFTLNSYGIS | VIYSDDERTFYGDSVV | GRAAGTFDS | n.d. / 4.98 / 3.80 | 4.39 | 0/9 |
| GFTLNSYGIS | VIYSDGRRTFYGDSYK | GRAAQTFDA | 2.85 / 2.59 / 2.70 | 2.71 | 2/9 (4.61) |
| GITMNSYGGS | VIYSDGRRTFYGDSVK | GRAAGTFDS | n.d. / 3.91 / n.d. | 3.91 | 1/9 (4.14) |
| GFTLNSYNIS | VILSIGRRTFYGDSVK | GRAAGTFDS | n.d. / n.d. / n.d. | n.d. | 2/9 (4.83) |
| GFTLNSYGIS | VIYSDGRRTFYGDSVK | GRAAGEFDR | n.d. / n.d. / n.d. | n.d. | 3/9 (3.97) |
| GFTLNSYGIS | VIYSDGRRTFEGDSVK | GRAQGCFDS | n.d. / n.d. / n.d. | n.d. | 0/9 |
| GFTLNSYGIS | VIYSDGRRTFYNDSVK | GRAAGRFDS | n.d. / n.d. / n.d. | n.d. | 2/9 (3.87) |
| GFTLNSYGIS | VIRSDGRSTFYGDSVK | GRACGTFDS | n.d. / n.d. / n.d. | n.d. | 0/9 |

The last 5 entries again:

{"CDR-H1": "GFTLNSYNIS", "CDR-H2": "VILSIGRRTFYGDSVK", "CDR-H3": "GRAAGTFDS", "replicates, log10 nM": "n.d. / n.d. / n.d.", "mean, log10 nM": "n.d.", "empty controls": "2/9 (4.83)"}
{"CDR-H1": "GFTLNSYGIS", "CDR-H2": "VIYSDGRRTFYGDSVK", "CDR-H3": "GRAAGEFDR", "replicates, log10 nM": "n.d. / n.d. / n.d.", "mean, log10 nM": "n.d.", "empty controls": "3/9 (3.97)"}
{"CDR-H1": "GFTLNSYGIS", "CDR-H2": "VIYSDGRRTFEGDSVK", "CDR-H3": "GRAQGCFDS", "replicates, log10 nM": "n.d. / n.d. / n.d.", "mean, log10 nM": "n.d.", "empty controls": "0/9"}
{"CDR-H1": "GFTLNSYGIS", "CDR-H2": "VIYSDGRRTFYNDSVK", "CDR-H3": "GRAAGRFDS", "replicates, log10 nM": "n.d. / n.d. / n.d.", "mean, log10 nM": "n.d.", "empty controls": "2/9 (3.87)"}
{"CDR-H1": "GFTLNSYGIS", "CDR-H2": "VIRSDGRSTFYGDSVK", "CDR-H3": "GRACGTFDS", "replicates, log10 nM": "n.d. / n.d. / n.d.", "mean, log10 nM": "n.d.", "empty controls": "0/9"}

As a blank, each scFv also met three strains without target: over library AAYL49, 15% of these pairings were detected, typically at 4.06 and seldom below 2.83. Also given: how often the same scFv was detected with the empty control strains, with their mean in brackets. For reference, the parent read 0.65 as the reference entry and 4.11 (one replicate of three) as a member of this library.